# scFv variants of Ab-14 (light chain) against a SARS-CoV-2 spike peptide

Source: Li et al. 2023 (doi:10.1038/s41467-023-39022-2), MIT Lincoln Laboratory and A-Alpha Bio; data file from the FLAb repository.

Target: peptide PDVDLGDISGINAS, taken from heptad repeat 2 (HR2) of SARS-CoV-2 spike.

Parent scFv Ab-14: VH joined to VL by three GGGGS repeats. Changes lie in the light chain CDRs alone.
VH: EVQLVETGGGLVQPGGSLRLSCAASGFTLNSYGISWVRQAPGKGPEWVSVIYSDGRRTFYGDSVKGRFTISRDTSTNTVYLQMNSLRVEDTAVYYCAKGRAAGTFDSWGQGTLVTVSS
VL: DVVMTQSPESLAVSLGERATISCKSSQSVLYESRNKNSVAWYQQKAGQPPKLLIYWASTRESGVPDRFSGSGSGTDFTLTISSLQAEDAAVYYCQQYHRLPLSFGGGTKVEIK

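This is the validation round: designs drawn from the data on random variants, tested in the same kind of assay. Group labels follow the data file (Ctrl: baseline library sampled from a position-specific scoring matrix, with some repeated check sequences; En: ensemble of fine-tuned language models; GP: Gaussian process model; HC: hill climbing; Gen: genetic algorithm; Gibbs: Gibbs sampling; a sequence that several methods proposed may carry one label only). Affinity was read by AlphaSeq, a pooled yeast mating assay with surface-displayed partners. After mating in shaken culture at 30 °C for 16 h, diploids were selected and their barcode pairs sequenced. Scores were corrected for input abundance and mapped to Kd with protein pairs of known affinity run in the same pool. Each pool was mated in six replicate cultures.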

The parent's light chain CDRs are KSSQSVLYESRNKNSVA, WASTRES, QQYHRLPLS; each variant's own CDRs replace them letter for letter. This list holds designs with more than six substitutions. Values are log10 of the apparent Kd in nM; lower means stronger binding. The mean shown is taken over the replicates in which the pair was detected. Where no diploid with the target was found in any replicate, the entry reads "not detected": below detection, most likely a poor binder, though not proof of it.

CDR-L1,CDR-L2,CDR-L3,group,"log10 Kd (nM), mean",replicates with signal
KIGMTLNQLLHQKNNVA,DLVEREN,QQYHRLPLS,En_Gen,0.34,6/6
QIDSFYQHGTDQNQAMA,DVTVRDQ,QQYSRLPLS,En_Gibbs,0.50,6/6
KIGMVTNGISRNKNSVA,EQSTRES,QQYNRLPLS,En_HC,0.42,6/6
KLSNSYEYQSRNMNSVA,NASTRLS,QQYHRLPLS,GP_Gibbs,0.51,6/6
HVAQTRQADISNKKSVA,EGEVLID,QQYGRLPFS,En_Gibbs,1.57,6/6
KQSQSQLYEDGNSNSVA,NASVRES,QQYHRLPLS,GP_Gibbs,0.15,6/6
HISQMVMLGSCNKNNVA,QVSTREE,QQYHRLPLS,En_HC,0.98,6/6
TIGQTLMQGIRNRSNVA,EVSQRLN,QQYDRLPLI,En_Gen,not detected,0/6
HMSALTLQGMRMRNSVA,QMTTREN,QQYDRLPLA,En_Gen,0.66,6/6
KVLQSVLQEDRNSNSVA,NASTREL,QQYHRLPLS,GP_Gibbs,0.24,6/6
KLSQYAGGESRNKSSLA,DNSTRES,QQYHRLPLS,En_HC,2.25,6/6
TLSDLMHMESRNANSVA,DLVKRES,QQYHRLPLS,En_HC,-0.03,6/6
KLYDMSALTVTNIRNVA,DNTTREQ,QQYHRLPLS,En_Gen,1.58,5/6
NMRGGEGEIAQHGYNVA,GVDLRAA,QQYARLPLH,En_Gibbs,0.87,6/6
KLSQSVKMESFVKDNVA,ENSTREA,QDYHRLPLS,En_HC,1.48,6/6
TISTSALYESINKNSVA,ELSTRGS,QQYERLPLS,En_HC,2.51,2/6
KLSATYRFESQNKSNIA,EMTTRES,QCYHRLPLS,En_HC,1.82,1/6
KFQQSVLYESRNLNNVA,HGSTRSS,QQYHRLPLS,GP_Gibbs,-0.20,6/6
NLNDSDMYMPQMTDNIA,QDTLRNE,QQYAKLPLS,En_Gibbs,1.27,6/6
KIGHGLTTESRAKNSVA,QTETRVS,QHYHRLPLS,En_HC,not detected,0/6
MLSDLVKMGSRNANSVA,DNSTRGS,QQYDRLPLS,En_HC,2.21,5/6
KLSASWLYGKRNKNSVA,QASQRCS,QQYHRLPLS,GP_Gibbs,0.85,6/6
KLYQSMGYLSRAKNSIA,DMSRREN,QQYHRLPLS,En_HC,0.25,6/6
KISQMYRYLQQNESSIA,EANTREQ,QSYHRLPLS,En_HC,not detected,0/6
KISQAYLYEDRNKNSVA,QANQRES,QQYHRLPLS,GP_Gibbs,-0.04,6/6
NFEMFDGMLNMYASSIA,NAHCLVQ,QQYGRLPIS,En_Gibbs,2.02,6/6
KLSMSTSYESLNRNSVA,ELTTRGG,QQYNRLPLS,En_HC,0.60,6/6
YVSSQAAQDRNQQQSIA,GVDYREK,QQYYHLPLS,En_Gibbs,1.69,3/6
KLTHPTDLWLNHVSAIA,DANISVE,QQYYQLPLT,En_Gibbs,0.63,6/6
SLAMLLNQVYAYGSNIA,NAQELVV,QQYYRLPLT,En_Gibbs,1.45,5/6
MLSMVTEGMRRKHNSVA,DNSTRES,QQYDRLPLS,En_Gen,2.79,5/6
KVQEMMAFLSSNRNNVA,DNSTRGS,QQYHRLPLS,En_HC,0.99,6/6
KLQQSKEYLSRWKNSVA,HASVRES,QQYHRLPLS,GP_Gibbs,2.33,3/6
RIFYGQERDIKHESSIA,NGMARVK,QQYHRLPLS,En_Gibbs,0.74,6/6
KLQQWWLYESRMKNNVA,NASTRED,QQYHRLPLS,GP_Gibbs,1.55,6/6
KIQQSVYYESLNQNSVA,HASTRLQ,QQYHRLPLS,GP_Gibbs,0.23,6/6
SLSMSMAFLSRNKNSVA,ENSTRES,QQYHRLPLI,En_HC,2.30,6/6
TISQVMNTLTRNTNNVA,DLQEREY,QQYFRLPLS,En_Gen,0.09,6/6
KYEYSELELSRNKNSVA,NASTREE,QQYHRLPLS,GP_Gibbs,0.36,6/6
KLYNRGEGSQKVDRSIA,EMQTRCE,QSYQRLPLS,En_Gibbs,1.77,5/6
TISGIMNSQSHSKNNVA,EMSTREK,QQYVRLPLA,En_Gen,0.76,6/6
KLREVQHVESKQKNSVA,DNSTRES,QDYYRLPLS,En_HC,2.66,6/6
KIGMTLNTVLHQKNNVA,DLVEREN,QQYFRLPLS,En_Gen,0.23,6/6
ALSMSEWMESRNKNSVA,SANTREE,QQYHRLPLS,GP_Gibbs,-0.22,6/6
KLQWQQYGENQQEAAIA,NETTVLQ,QQYFKLPLT,En_Gibbs,1.26,6/6
HVSNLYTDEMVREYNIA,ETSHVEE,QQYERLPLI,En_Gibbs,0.97,6/6
TISQMTSLFSQSINNVA,EVSTREK,QQYDRLPLA,En_Gen,0.58,6/6
KISQITGHLSMSKNNVA,EMVTREN,QQYDRLPLS,En_Gen,1.94,3/6
MFSQLVYTGSRARNAVA,QASTREN,QQYHRLPLS,En_HC,1.85,5/6
KCAQSQDYESRNKNAVA,NASQRES,QQYHRLPLS,GP_Gibbs,0.77,6/6
TISQMLMMQTSHKNSVA,GEETRYN,QQYHRLPLS,En_HC,0.93,6/6
KLYDEATSRVGTAENIA,EKEISLQ,QQYHRLPLS,En_Gibbs,1.96,6/6
KISQTFNVGQKNKNSLA,EMSTRGF,QDYHRLPLS,En_HC,1.21,6/6
KLLQAVMNETRNRNNVA,HMTTRED,QQYHRLPLS,En_HC,0.67,6/6
KVSEFMRGLMMRKDSIA,DNNTRQN,QQYDRLPLS,En_Gen,2.35,5/6
KISQSVLYELRNANAVA,QASTREW,QQYMRLPLF,Ctrl,not detected,0/6
TIGGTLMYGYRNRSNVA,EVSQRLN,QQYDRLPLF,En_Gen,1.63,3/6
KLSQSVGYESRLANNVA,NASTRLE,QQYHRLPLS,GP_Gibbs,0.24,6/6
KIGLVTNGISFSTNSVA,EQSTREN,QQYDRLPLS,En_HC,1.17,6/6
IVTQLMLWGWHAKNSIA,EAQTRIN,QQYDRLPLF,En_Gen,not detected,0/6
KVMQSVLYEDRNVNNVA,NGSTRES,QQYHRLPLS,GP_Gibbs,0.05,6/6
TISQLMNMGQFAINSVA,QASLRNE,QQYDRLPLA,En_Gen,1.19,6/6
KCDQSQDYESRNKNNVA,NASQRES,QQYHRLPLS,GP_Gibbs,0.00,6/6
KYQQLEPYESRNKNSVA,NASTREE,QQYHRLPLS,GP_Gibbs,-0.23,6/6
KISMMYRFEQTASNNIA,EMTTRAE,QSYHRLPLS,En_HC,1.54,6/6
SLQSEALGGNQKTSSIA,GNSVAMP,QQYERLPLD,En_Gibbs,2.08,6/6
HMSMLTLQGMRQRNSVA,QMTTREN,QQYDHLPLS,En_Gen,1.39,6/6
KLSMVTGHLSMAKYNVA,EMVTREK,QQYNRLPLS,En_Gen,0.61,6/6
KVSQSDNGESRNHNSVA,HASTRSS,QQYHRLPLS,GP_Gibbs,0.52,6/6
NIVEDNAGDQKNSSNIA,SVDQRED,QQYQKLPLM,En_Gibbs,1.11,6/6
KLQQSWLYGSRNANSVA,NASQREE,QQYHRLPLS,GP_Gibbs,-0.10,6/6
HISQMVMYGSCNKNNVA,QVSIREE,QQYHRLPLS,En_HC,not detected,0/6
VLMGQGADSIKHANSIA,NVDLVDM,QQYAHLPLS,En_Gibbs,not detected,0/6
KLSQVTKSESRNKNSIA,EMVTREV,QQYDRLPLS,En_HC,0.73,6/6
KLMVFPTNAGMTQANIA,DASHSTD,QQYERLPLM,En_Gibbs,0.83,6/6
TLGDVTRMESNKKNSIA,DMSNRAD,QQYHRLPLD,En_HC,0.89,6/6
ILSQMMLTAGNKHSSVA,QANNREN,QQYHRLPLS,En_HC,1.71,5/6

Nonspecific signal, from three strains lacking the peptide, appeared in 4% of pairings of all light chain designs, centred on 2.64 (5% of these signals below 1.59); values are not corrected for it. The authors' rule: three or more of the six replicates give a measured affinity, fewer mean a poor binder. Values of this round are not directly comparable with the first-round values of the same sequences.